Target: mitochondrial Complex V (Bos taurus, UniProt P00829+P00847+P19483+P32876)
Experiment: Mito Check Complex Activity Assay Kit, complex V
Format: biochemical
Conditions: mitochondrial electron transport chain
Excerpt: Dulbecco’s Modified Eagle’s medium (DMEM), WST-8 colorimetric reagent, and KCN were purchased from Nacalai Tesque, Inc. (Kyoto, Japan). Fetal bovine serum (FBS) and Dialyzed FBS were purchased from Equitech-Bio Inc. (Kerrville, TX, USA) and Thermo Fisher Scientific Inc. (Waltham, MA, USA), respectively. Anti-Akt, Anti-phosphorylated Akt, anti-GRP78, and anti-β-actin antibodies were obtained from Cell Signaling Technology, Inc. (Danvers, MA, USA). Horseradish peroxidase (HRP)-linked anti-rabbit IgG antibody (GE Healthcare Life Sciences, Buckinghamshire, UK) was used as secondary antibody. Mito Check Complex Activity Assay Kit (Cayman Chemical, Ann Arbor, MI, USA) was used to evaluate the effect of compound 1 on the mitochondrial complex I–V. Oxygen consumption of cells was measured by Oxygen Consumption Rate (OCR) Assay Kit (Cayman Chemical, Ann Arbor, MI, USA). Rotenone, thenoyltrifluoroacetone (TTFA), carbonyl cyanide m-chlorophenylhydrazone (CCCP), antimycin A, and oligomycin A were obtained from Tokyo Chemical Industry Co., LTD. […]
Antimycin A is a known inhibitor of complex III in the mitochondrial electron transport chain [17]. […] We also evaluated the effect of compound 1 on the oxygen consumption of PANC-1 cells cultured in the Glucose Deficient Medium.

Protein sequences, listed by entry. Tags and fused reporters are not part of them. Lines headed by an entry give the natural chain unless they say otherwise; changes in a name come on top.
UniProt P00829: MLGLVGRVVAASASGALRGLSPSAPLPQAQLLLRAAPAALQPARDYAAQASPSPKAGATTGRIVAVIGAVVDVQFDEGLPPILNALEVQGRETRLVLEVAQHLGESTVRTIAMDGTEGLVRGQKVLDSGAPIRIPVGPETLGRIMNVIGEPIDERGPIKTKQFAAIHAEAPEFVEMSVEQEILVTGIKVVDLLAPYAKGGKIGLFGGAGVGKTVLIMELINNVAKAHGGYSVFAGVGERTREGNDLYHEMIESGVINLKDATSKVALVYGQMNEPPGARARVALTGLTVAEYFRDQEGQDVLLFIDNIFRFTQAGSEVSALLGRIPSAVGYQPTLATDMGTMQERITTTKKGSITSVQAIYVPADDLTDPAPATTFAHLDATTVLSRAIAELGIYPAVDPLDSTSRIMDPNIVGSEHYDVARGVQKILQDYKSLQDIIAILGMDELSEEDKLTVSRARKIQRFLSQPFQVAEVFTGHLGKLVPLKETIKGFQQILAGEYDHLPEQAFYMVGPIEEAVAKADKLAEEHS
UniProt P00847: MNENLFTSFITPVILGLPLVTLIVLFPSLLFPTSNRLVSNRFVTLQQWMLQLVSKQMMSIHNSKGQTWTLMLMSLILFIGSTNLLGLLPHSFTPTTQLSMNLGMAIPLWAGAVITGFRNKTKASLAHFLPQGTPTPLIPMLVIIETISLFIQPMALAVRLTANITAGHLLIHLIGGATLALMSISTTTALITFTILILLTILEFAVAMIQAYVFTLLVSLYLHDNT
UniProt P19483: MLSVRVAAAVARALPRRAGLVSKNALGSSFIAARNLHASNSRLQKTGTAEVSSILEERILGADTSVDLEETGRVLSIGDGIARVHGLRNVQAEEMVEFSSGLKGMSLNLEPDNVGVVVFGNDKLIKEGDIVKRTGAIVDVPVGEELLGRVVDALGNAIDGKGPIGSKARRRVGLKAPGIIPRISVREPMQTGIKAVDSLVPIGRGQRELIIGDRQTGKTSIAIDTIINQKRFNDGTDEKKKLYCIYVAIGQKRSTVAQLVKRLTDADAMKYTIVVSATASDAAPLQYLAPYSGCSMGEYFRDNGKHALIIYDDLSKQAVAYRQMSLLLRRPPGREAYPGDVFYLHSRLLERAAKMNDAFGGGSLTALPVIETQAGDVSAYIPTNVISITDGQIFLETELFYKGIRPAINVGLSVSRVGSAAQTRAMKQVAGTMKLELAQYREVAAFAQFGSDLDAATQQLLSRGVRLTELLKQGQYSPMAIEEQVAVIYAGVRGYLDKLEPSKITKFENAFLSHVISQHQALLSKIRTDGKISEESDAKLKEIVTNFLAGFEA
UniProt P32876: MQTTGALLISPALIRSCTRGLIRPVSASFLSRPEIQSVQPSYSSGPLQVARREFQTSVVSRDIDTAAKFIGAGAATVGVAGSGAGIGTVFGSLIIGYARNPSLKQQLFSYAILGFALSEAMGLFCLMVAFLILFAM

oligomycin A [reference compound]
IC50: 360 nM
